Data as given in publication PMC5522753 (Bioorganic & medicinal chemistry letters, 2016).

Test system: B and T cells from healthy donors
Experiment: Differential cytotoxicity: normal B and T-lymphocytes versus CLL cells
Conditions: Figure 2

With `CN1C(=O)N[C@H]2[C@@H]3NC(=O)c4cc(Cl)c(Br)n4[C@@H]3C[C@]21O` [Compound 3, 14-chloro AglA] the “toxicity toward B and T cells from healthy donors compared to CLL cells” value was “selectivity for CLL leukemia cells was even more apparent”.
